The values that follow are results of earlier work, collected in patent publication US20240374523A1, “STABILIZED APILIMOD COMPOSITIONS AND USES THEREOF” (Orphai Therapeutics Inc., priority 2021, published 2024).

Structures are written as SMILES.

For this data set the following is noted: rodent models (mice, rats), after gastrointestinal absorption (Patty's Industrial Hygiene and Toxicology); cited from earlier work.

In the case of `C=Cc1ccccn1` [2-vinyl pyridine], the toxic effects entry is “weakness, ataxia, vasodilation, respiratory distress, and convulsions”.
